DYRK1A inh = inhibitors of rat Dyrk1A kinase; Q63470; ADP-Glo luminescence, NFATc1 peptide; inhibition, % at 12.5 µM; hit rate 0.43% among 310,000; AID 504441; in the data active = inhibition above about 50%
CAL PDZ FP-1 = blocks peptide binding to human CAL PDZ domain. Q9HD26. purified CAL PDZ, TMR-peptide fluorescence polarization, 1 h. inhibition, % at 20 µM. hit rate 0.02% among 330,000;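 active = highest replicate inhibition of at least 40%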
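Assay system – tagged CAL PDZ protein CerCALP, purified · Timing – 1 h at RT · Compound – single point, 20 µM · Measured by – fluorescence polarization from S- and P-plane intensities, G-factor corrected · Evaluation – inhibition from polarization loss · Probe or stimulus – TMR reporter peptide T*-PRC34 · Buffer or medium – pH 7.4 phosphate-saline buffer, reducing agent, detergent, IgG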
UUG fidelity = yeast start codon fidelity modulation | S. cerevisiae UUG-firefly luciferase reporter, luminescence/redox ratio | activity score, % at 18.7 µM | 0.13% of 350,000 active | AID 602363;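 active means replicate mean at a twofold rise or more, about +100% in these data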;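 further: firefly luciferase made from a UUG start codon reports start codon fidelity; reporter light over untreated wells divided by growth signal over untreated wells; some hits fall short of that in this replicate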
dFosB activator = activators of mouse delta FosB homodimer. activation, % at 25 µM. purified delta FosB, TAMRA-CDK5 oligo fluorescence polarization; percent of positive-control signal above neutral wells. hit rate 0.99% among 340,000. P13346;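 active = mean activation above about 17%, with every replicate also reaching it, limit read from the data, passing the limit was not always enough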
CDK5 inh = inhibitors of human CDK5/p35 kinase | Recombinant CDK5/p35, ADP-Glo luminescence, 60 min | inhibition, % at 10 µM | hit rate 0.01% among 330,000 | Q00535+Q15078;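 active = highest replicate inhibition of at least 50% and at least 75% of replicates reaching 50%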
CAL PDZ FP-2 = CAL PDZ (human) peptide binding inhibition; Q9HD26; purified CAL PDZ, TMR-peptide fluorescence polarization, 1 h; inhibition, % at 24.9 µM; hit rate 0.92% among 300,000; AID 602252;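 active = mean inhibition of at least 30% with at least half of replicates also reaching 30%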
Each line names hits and unclear results; the compound was inactive in the other large screens. The list is not random: actives were taken first. Their share in the collection is about 1.7%.

COc1ccc(CN2CCC(Oc3ccc(C(=O)N4CCCC4)cc3)CC2)c(F)c1	CAL PDZ FP-2 128
C#CCN(C(=O)c1ccc(OC2CCN(Cc3ccccn3)CC2)cc1)C1CCCCC1	CAL PDZ FP-2 55
CCn1cc(CNC(=O)c2ccc(OC3CCN(Cc4ccccn4)CC3)cc2)cn1	none
CCn1nc(C)c(CNC(=O)c2ccc(OC3CCN(Cc4ccccn4)CC3)cc2)c1C	CAL PDZ FP-2 50
CN(C(=O)c1ccc(OC2CCN(Cc3ccccn3)CC2)cc1)C1CCCCC1	none
CCn1nc(C)c(CN2CCC(Oc3ccc(C(=O)N4CCCC4)cc3)CC2)c1C	CAL PDZ FP-2 51
C[C@H]1CN([C@@H](C)CO)C(=O)Cc2cc(NC(=O)NC3CCCCC3)ccc2O[C@@H]1CN(C)CC1CCCCC1	none (no result: DYRK1A inh, CAL PDZ FP-1, dFosB activator, CDK5 inh, CAL PDZ FP-2)
Cc1cc(F)ccc1NCc1ccc([N+](=O)[O-])cc1	CAL PDZ FP-2 46 (no result: UUG fidelity)
COc1ccc(CCn2nnc(-c3ccc(NC(C)=O)c(Cl)c3)n2)cc1	dFosB activator 33
COc1ccc(-c2ccc(-c3nnn(CC(C)=O)n3)cc2)cc1	none (no result: CAL PDZ FP-2)
C[C@@H]1CN([C@H](C)CO)S(=O)(=O)c2ccc(C#CC3(O)CCCC3)cc2O[C@H]1CN(C)C(=O)Nc1ccccc1	none (no result: DYRK1A inh, CAL PDZ FP-1, dFosB activator, CDK5 inh, CAL PDZ FP-2)
C[C@H](CO)N1C[C@H](C)[C@@H](CN(C)S(=O)(=O)c2ccccc2)OCCCC[C@H](C)Oc2ccc(NS(=O)(=O)c3ccc(F)cc3)cc2C1=O	none (no result: DYRK1A inh, CAL PDZ FP-1, dFosB activator, CDK5 inh, CAL PDZ FP-2)
CC12CN3CC(C)(CN(C1)C3c1c[nH]c3ccccc13)C2=O (configuration not stated)	none (no result: UUG fidelity)
CC12CN3CC(C)(CN(C1)C3c1ccc3ccccc3c1O)C2=O (configuration not stated)	CAL PDZ FP-2 93 (no result: CAL PDZ FP-1)
CN(Cc1cccc(F)c1)C(=O)c1ccc2c(=O)n3c(nc2c1)CCC3	CAL PDZ FP-2 65
CN(CC(=O)Nc1cccc(F)c1)C(=O)c1ccc2c(=O)n3c(nc2c1)CCC3	none
c1ccc2nc(N3CCOCC3)c(N3CCCC3)nc2c1	CAL PDZ FP-2 71
c1ccc2nc(N3CCCC3)c(N3CCCCC3)nc2c1	none
O=C(C[C@H]1CC[C@@H]2[C@H](COC[C@@H](O)CN2Cc2cccc(F)c2)O1)NCCc1ccncc1	none (no result: DYRK1A inh, CAL PDZ FP-1, dFosB activator, CDK5 inh, CAL PDZ FP-2)
Oc1ccc(Nc2nc(NCC3CCCO3)c3ccccc3n2)cc1 (configuration not stated)	none
Oc1ccccc1Nc1nc(NCC2CCCO2)c2ccccc2n1 (configuration not stated)	dFosB activator 25 (no result: UUG fidelity)
Oc1ccc(Cl)cc1Nc1nc(NCC2CCCO2)c2ccccc2n1 (configuration not stated)	dFosB activator 44
C[C@H]1CN([C@@H](C)CO)C(=O)c2cccc(NC(=O)C3CC3)c2O[C@H]1CN(C)C(=O)Nc1ccc(C(F)(F)F)cc1	none (no result: DYRK1A inh, CAL PDZ FP-1, dFosB activator, CDK5 inh, CAL PDZ FP-2)
Cc1onc(-c2c(Cl)cccc2Cl)c1C(=O)N1CCN(c2ncccn2)CC1	CAL PDZ FP-2 51 (no result: UUG fidelity)
Cc1onc(-c2c(Cl)cccc2Cl)c1C(=O)N1CCN(c2ccccc2)CC1	none (no result: UUG fidelity)
CCOC(=O)C1(Cc2ccccc2)CCCN(C(=O)c2cn[nH]c2)C1 (configuration not stated)	none
CCOC(=O)C1(Cc2cccc(Cl)c2)CCCN(C(=O)c2ccnn2C)C1 (configuration not stated)	CAL PDZ FP-2 41
CCOC(=O)C1(Cc2ccccc2)CCCN(C(=O)c2ccc(-n3ccnc3)cc2)C1 (configuration not stated)	CAL PDZ FP-2 38
Cc1ccc(CS(=O)Cc2ccc(C(=O)NCC(C)c3ccccc3)o2)cc1 (configuration not stated)	CAL PDZ FP-2 82
CN1C(=O)c2cc(NC(=O)c3ccc(F)cc3)ccc2OC[C@H]2O[C@@H](CC(=O)NCC3CCCCC3)CC[C@H]21	none (no result: DYRK1A inh, CAL PDZ FP-1, dFosB activator, CDK5 inh, CAL PDZ FP-2)
CC(=O)Nc1sc2c(c1C(N)=O)CCC2	CAL PDZ FP-2 68 (no result: CAL PDZ FP-1)
O=C(COc1ccc(Cl)cc1)c1ccc(O)cc1O	CAL PDZ FP-2 55
COC(=O)c1ccc(OCC(=O)c2ccc(O)cc2O)cc1	none
OCCC1CN(Cc2ccc3cc(Cl)ccc3n2)CCN1Cc1ccsc1 (configuration not stated)	CAL PDZ FP-2 72
COc1ccc(S(=O)(=O)N(C)C[C@H]2Oc3c(NS(C)(=O)=O)cccc3C(=O)N([C@H](C)CO)C[C@H]2C)cc1	none (no result: DYRK1A inh, CAL PDZ FP-1, dFosB activator, CDK5 inh, CAL PDZ FP-2)
Cc1ccc(S(=O)(=O)N=Nc2c(O)[nH]c3ccccc23)cc1	CAL PDZ FP-2 32
Cc1ccc(C)c(S(=O)(=O)N=Nc2c(O)[nH]c3ccccc23)c1	none (no result: UUG fidelity)
Cc1nn2c(-c3ccc(F)cc3)ccnc2c1Cl	CAL PDZ FP-2 61
O=C(Nc1ccccc1F)N1C[C@@H]2[C@H](c3ccccc31)[C@@H](CO)N2C(=O)c1ccccn1	none (no result: DYRK1A inh, CAL PDZ FP-1, dFosB activator, CDK5 inh, CAL PDZ FP-2)
C[C@@H]1CN([C@@H](C)CO)C(=O)c2cc(NC(=O)Nc3ccc(C(F)(F)F)cc3)ccc2O[C@H]1CN(C)C	none (no result: DYRK1A inh, CAL PDZ FP-1, dFosB activator, CDK5 inh, CAL PDZ FP-2)
COc1cccc2sc(Nc3nc4ccc(NC(C)=O)cc4s3)nc12	dFosB activator 35 (no result: UUG fidelity)
CC(=O)Nc1ccc2nc(NC(=O)COc3ccccc3C)sc2c1	dFosB activator 20
CC(=O)Nc1ccc2nc(NC(=O)COc3ccccc3Cl)sc2c1	none (no result: DYRK1A inh)
CCCN(C)C[C@H]1Oc2cc(-c3ccccc3)ccc2S(=O)(=O)N([C@H](C)CO)C[C@H]1C	none (no result: DYRK1A inh, CAL PDZ FP-1, dFosB activator, CDK5 inh, CAL PDZ FP-2)
Cc1ccc(S(=O)(=O)Nc2ccc3c(c2)C(=O)N([C@H](C)CO)C[C@H](C)[C@H](CN(C)S(=O)(=O)c2ccc(C)cc2)O3)cc1	none (no result: DYRK1A inh, CAL PDZ FP-1, dFosB activator, CDK5 inh, CAL PDZ FP-2)
COc1ccc(S(=O)(=O)N2CCCCCC2)cc1C(=O)OC(C)C(N)=O (configuration not stated)	CAL PDZ FP-2 active
COc1ccc(S(=O)(=O)N2CCCCCC2)cc1NC(C)C(=O)Nc1ccc(NC(C)=O)cc1 (configuration not stated)	CAL PDZ FP-2 48
COc1ccc(S(=O)(=O)N2CCC(C(=O)N[C@H](C(=O)N3CCCC3)C(C)C)CC2)cc1	CAL PDZ FP-2 94
COc1ccc(S(=O)(=O)N2CCCCC2)cc1NC(=O)C1CC1	CAL PDZ FP-2 32
COc1ccc(S(=O)(=O)N2CCCCCC2)cc1C(=O)OCC(=O)NC(N)=O	none
C[C@H](CO)N1C[C@H](C)[C@@H](CN(C)CC2CC2)OCCCC[C@H](C)Oc2ccc(NC(=O)Nc3ccc(F)cc3)cc2C1=O	none (no result: DYRK1A inh, CAL PDZ FP-1, dFosB activator, CDK5 inh, CAL PDZ FP-2)
CC(C)CC#Cc1ccc2c(c1)O[C@@H](CN(C)Cc1ccncc1)[C@@H](C)CN([C@H](C)CO)S2(=O)=O	none (no result: DYRK1A inh, CAL PDZ FP-1, dFosB activator, CDK5 inh, CAL PDZ FP-2)
C[C@H]1CCCCO[C@@H](CN(C)C(=O)Nc2ccccc2)[C@@H](C)CN([C@@H](C)CO)C(=O)c2cc(N(C)C)ccc2O1	none (no result: DYRK1A inh, CAL PDZ FP-1, dFosB activator, CDK5 inh, CAL PDZ FP-2)
COc1ccc(CCN(C)C(=O)c2c(C)nn(CC(C)C)c2Cl)cc1OC	CAL PDZ FP-2 104
C[C@@H]1CN([C@H](C)CO)S(=O)(=O)c2ccc(C3=CCCC3)cc2O[C@@H]1CN(C)Cc1cncnc1	none (no result: DYRK1A inh, CAL PDZ FP-1, dFosB activator, CDK5 inh, CAL PDZ FP-2)

Bioassay records from PubChem BioAssay.
